For this assay, the system named is RhoB promoter. The experiment in a line: RhoB promoter luciferase reporter assay in transfected H1299 cells treated with TPX. The conditions noted are these: 30 nM TPX vs 0.1% DMSO, 24 h.

Structures are written as SMILES. Square brackets hold non-standard residues; d marks the D form. Peptide text beside a SMILES is read from it. ξ: configuration not given here. Aoe(9ξ) = N[C@@H](CCCCCC(=O)C1CO1)C(=O)O; dPip = O=C(O)[C@H]1CCCCN1

For the compound `O=C(CCCCC[C@@H]1NC(=O)[C@H]2CCCCN2C(=O)[C@H](Cc2ccccc2)NC(=O)[C@H](Cc2ccccc2)NC1=O)C1CO1` (stereo partly shown) [TPX, Trapoxin A] (cyclo(FF[dPip][Aoe(9ξ)])), the “Response of RhoB promoter with inverted CCAAT box mutated to 5′-TTTAG-3′” value is given as “dramatically reduced to the promoterless vector control level”.

Source of the values: US20060040884A1, “Antisense oligonucleotides directed to genes regulated by trapoxin-induced HDAC inhibition” (priority 2001, published 2006).
